Laboratory results taken from patent US20240360179A1, “STAPLED PEPTIDES AND METHODS THEREOF” (FOG PHARMACEUTICALS, INC., priority 2021, published 2024).

Chains of the proteins cited; added tags and fusions are not shown.
UniProt P35222, whole entry: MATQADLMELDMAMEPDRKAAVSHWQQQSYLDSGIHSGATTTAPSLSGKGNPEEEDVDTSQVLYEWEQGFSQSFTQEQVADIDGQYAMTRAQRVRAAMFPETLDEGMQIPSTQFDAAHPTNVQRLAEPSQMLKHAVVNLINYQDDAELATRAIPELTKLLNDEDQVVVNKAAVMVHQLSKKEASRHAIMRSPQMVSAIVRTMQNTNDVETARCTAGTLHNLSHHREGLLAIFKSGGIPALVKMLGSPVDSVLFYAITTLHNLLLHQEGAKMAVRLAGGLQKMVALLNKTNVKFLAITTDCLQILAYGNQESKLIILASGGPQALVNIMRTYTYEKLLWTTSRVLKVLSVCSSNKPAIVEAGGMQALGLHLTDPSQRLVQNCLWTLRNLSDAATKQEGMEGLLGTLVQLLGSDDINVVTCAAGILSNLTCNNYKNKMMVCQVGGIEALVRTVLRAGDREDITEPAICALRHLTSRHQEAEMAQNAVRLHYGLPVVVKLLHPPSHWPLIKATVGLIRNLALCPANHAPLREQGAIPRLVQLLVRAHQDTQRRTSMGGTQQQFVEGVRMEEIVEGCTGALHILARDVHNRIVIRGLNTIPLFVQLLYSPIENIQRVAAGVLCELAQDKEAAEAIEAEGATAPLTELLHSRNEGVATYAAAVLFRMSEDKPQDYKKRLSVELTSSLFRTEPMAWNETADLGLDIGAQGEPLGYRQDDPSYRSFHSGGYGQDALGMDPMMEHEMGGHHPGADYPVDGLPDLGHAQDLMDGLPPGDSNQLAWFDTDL

Molecular target: T1, full-length B-Catenin (Uniprot ID P35222) (Homo sapiens, UniProt P35222)
T1 construct: 10 nM full-length B-Catenin (Uniprot ID P35222)
Type: binding
Conditions: competition fluorescence polarization; read-out: beta-Catenin FP IC50

Row | Substance | IC50
1 | Ac-PL3-Asp-Ile-B5-Asp-3COOHF-Aib-Ala-Phe-1MeK*3-PyrS2-Phe-34ClF-dGlnR*3-NHMe [I-1761] | < 50 nM
2 | Ac-PL3-Asp-Ile-B5-Asp-3COOHF-Aib-Ala-Phe-1MeK*3-PyrS2-Phe-34ClF-hGlnR*3-NH2 [I-1373] | < 50 nM
3 | Ac-PL3-Asp-Ile-B5-Asp-3COOHF-Aib-Ala-Phe-AsnMeEDA*3-PyrS2-Phe-34ClF-GlnR*3-NH2 [I-1417] | < 50 nM
4 | Ac-PL3-Asp-Ile-B5-Asp-3COOHF-Aib-Ala-Phe-AsnR3APyr*3-PyrS2-Phe-34ClF-AsnR*3-NH2 [I-1420] | < 50 nM
5 | Ac-PL3-Asp-Ile-B5-Asp-3COOHF-Aib-Ala-Phe-AsnR3APyr*3-PyrS2-Phe-34ClF-GlnR*3-NH2 [I-1421] | < 50 nM
6 | Ac-PL3-Asp-Ile-B5-Asp-3COOHF-Aib-Ala-Phe-AsnR*3-PyrS2-Phe-34ClF-AsnS3APyr*3-NH2 [I-1422] | < 50 nM
7 | Ac-PL3-Asp-Ile-B5-Asp-3COOHF-Aib-Ala-Phe-AsnS3APyr*3-PyrS2-Phe-34ClF-AsnR*3-NH2 [I-1424] | < 50 nM
8 | Ac-PL3-Asp-Ile-B5-Asp-3COOHF-Aib-Ala-Phe-GlnR3APyr*3-PyrS2-Phe-34ClF-GlnR*3-NH2 [I-1381] | < 50 nM
9 | Ac-PL3-Asp-Ile-B5-Asp-3COOHF-Aib-Ala-Phe-GlnR*3-PyrS2-Phe-34ClF-1MeK*3-NH2 [I-1370] | < 50 nM
10 | Ac-PL3-Asp-Ile-B5-Asp-3COOHF-Aib-Ala-Phe-GlnR*3-PyrS2-Phe-34ClF-AsnEDA*3-NH2 [I-1376] | < 50 nM
11 | Ac-PL3-Asp-Ile-B5-Asp-3COOHF-Aib-Ala-Phe-GlnR*3-PyrS2-Phe-34ClF-AsnMe2EDA*3-NH2 [I-1415] | < 50 nM
12 | Ac-PL3-Asp-Ile-B5-Asp-3COOHF-Aib-Ala-Phe-GlnR*3-PyrS2-Phe-34ClF-AsnMeEDA*3-NH2 [I-1416] | < 50 nM
13 | Ac-PL3-Asp-Ile-B5-Asp-3COOHF-Aib-Ala-Phe-GlnR*3-PyrS2-Phe-34ClF-AsnPpz*3-NH2 [I-1379] | < 50 nM
14 | Ac-PL3-Asp-Ile-B5-Asp-3COOHF-Aib-Ala-Phe-GlnR*3-PyrS2-Phe-34ClF-AsnR3APyr*3-NH2 [I-1419] | < 50 nM
15 | Ac-PL3-Asp-Ile-B5-Asp-3COOHF-Aib-Ala-Phe-GlnR*3-PyrS2-Phe-34ClF-AsnS3APyr*3-NH2 [I-1423] | < 50 nM
16 | Ac-PL3-Asp-Ile-B5-Asp-3COOHF-Aib-Ala-Phe-GlnR*3-PyrS2-Phe-34ClF-GlnEDA*3-NH2 [I-1378] | < 50 nM
17 | Ac-PL3-Asp-Ile-B5-Asp-3COOHF-Aib-Ala-Phe-GlnR*3-PyrS2-Phe-34ClF-GlnMe2EDA*3-NH2 [I-1414] | < 50 nM
18 | Ac-PL3-Asp-Ile-B5-Asp-3COOHF-Aib-Ala-Phe-GlnR*3-PyrS2-Phe-34ClF-GlnPpz*3-NH2 [I-1380] | < 50 nM
19 | Ac-PL3-Asp-Ile-B5-Asp-3COOHF-Aib-Ala-Phe-GlnR*3-PyrS2-Phe-34ClF-GlnR3APyr*3-NH2 [I-1382] | < 50 nM
20 | Ac-PL3-Asp-Ile-B5-Asp-3COOHF-Aib-Ala-Phe-GlnR*3-PyrS2-Phe-34ClF-GlnS3APyr*3-NH2 [I-1385] | < 50 nM
21 | Ac-PL3-Asp-Ile-B5-Asp-3COOHF-Aib-Ala-Phe-GlnR*3-PyrS2-Phe-34ClF-Lys*3-NH2 [I-1367] | < 50 nM
22 | Ac-PL3-Asp-Ile-B5-Asp-3COOHF-Aib-Ala-Phe-GlnR*3-PyrS2-Phe-34ClF-dLys*3-Ala-NH2 [I-1778] | < 50 nM

Row | Substance | IC50
23 | Ac-PL3-Asp-Ile-B5-Asp-3COOHF-Aib-Ala-Phe-GlnS3APyr*3-PyrS2-Phe-34ClF-GlnR*3-NH2 [I-1383] | < 50 nM
24 | Ac-PL3-Asp-Ile-B5-Asp-3COOHF-Aib-Ala-Phe-Lys*3-PyrS2-2FF-34ClF-GlnR*3-NH2 [I-1539] | < 50 nM
25 | Ac-PL3-Asp-Ile-B5-Asp-3COOHF-Aib-Ala-Phe-Lys*3-PyrS2-2FF-BztA-GlnR*3-NH2 [I-1543] | < 50 nM
26 | Ac-PL3-Asp-Ile-B5-Asp-3COOHF-Aib-Ala-Phe-Lys*3-PyrS2-2MeF-34ClF-GlnR*3-NH2 [I-1508] | < 50 nM
27 | Ac-PL3-Asp-Ile-B5-Asp-3COOHF-Aib-Ala-Phe-Lys*3-PyrS2-2MeF-BztA-GlnR*3-NH2 [I-1546] | < 50 nM
28 | Ac-PL3-Asp-Ile-B5-Asp-3COOHF-Aib-Ala-Phe-Lys*3-PyrS2-3Thi-2BrF-GlnR*3-NH2 [I-1612] | < 50 nM
29 | Ac-PL3-Asp-Ile-B5-Asp-3COOHF-Aib-Ala-Phe-Lys*3-PyrS2-3Thi-3BrF-GlnR*3-NH2 [I-1613] | < 50 nM
30 | Ac-PL3-Asp-Ile-B5-Asp-3COOHF-Aib-Ala-Phe-Lys*3-PyrS2-3Thi-3F3MeF-GlnR*3-NH2 [I-1614] | < 50 nM
31 | Ac-PL3-Asp-Ile-B5-Asp-3COOHF-Aib-Ala-Phe-Lys*3-PyrS2-3Thi-4F3MeF-GlnR*3-NH2 [I-1615] | < 50 nM
32 | Ac-PL3-Asp-Ile-B5-Asp-3COOHF-Aib-Ala-Phe-Lys*3-PyrS2-3Thi-34ClF-GlnR*3-Val-Glu-Ala-NH2 [I-1263] | < 50 nM
33 | Ac-PL3-Asp-Ile-B5-Asp-3COOHF-Aib-Ala-Phe-Lys*3-PyrS2-3Thi-34ClF-GlnR*3-Val-Glu-Leu-NH2 [I-1264] | < 50 nM
34 | Ac-PL3-Asp-Ile-B5-Asp-3COOHF-Aib-Ala-Phe-Lys*3-PyrS2-3Thi-34ClF-GlnR*3-Val-Thr-Ala-NH2 [I-1265] | < 50 nM
35 | Ac-PL3-Asp-Ile-B5-Asp-3COOHF-Aib-Ala-Phe-Lys*3-PyrS2-3Thi-34MeF-GlnR*3-Ala-NH2 [I-1099] | < 50 nM
36 | Ac-PL3-Asp-Ile-B5-Asp-3COOHF-Aib-Ala-Phe-Lys*3-PyrS2-3Thi-34MeF-GlnR*3-NH2 [I-1100] | < 50 nM
37 | Ac-PL3-Asp-Ile-B5-Asp-3COOHF-Aib-Ala-Phe-Lys*3-PyrS2-3Thi-BztA-GlnR*3-Ala-NH2 [I-706] | < 50 nM
38 | Ac-PL3-Asp-Ile-B5-Asp-3COOHF-Aib-Ala-Phe-Lys*3-PyrS2-DipA-34ClF-GlnR*3-NH2 [I-1534] | < 50 nM
39 | Ac-PL3-Asp-Ile-B5-Asp-3COOHF-Aib-Ala-Phe-Lys*3-PyrS2-DipA-34ClF-GlnR*3-NH2 [I-1535] | 50 to 200 nM
40 | Ac-PL3-Asp-Ile-B5-Asp-3COOHF-Aib-Ala-Phe-Lys*3-PyrS2-Phe-2BrF-GlnR*3-NH2 [I-1602] | 50 to 200 nM
41 | Ac-PL3-Asp-Ile-B5-Asp-3COOHF-Aib-Ala-Phe-Lys*3-PyrS2-Phe-2BrF-GlnR*3-NH2 [I-1603] | 200 to 750 nM
42 | Ac-PL3-Asp-Ile-B5-Asp-3COOHF-Aib-Ala-Phe-Lys*3-PyrS2-Phe-2ClF-GlnR*3-NH2 [I-1596] | 50 to 200 nM
43 | Ac-PL3-Asp-Ile-B5-Asp-3COOHF-Aib-Ala-Phe-Lys*3-PyrS2-Phe-3BrF-GlnR*3-NH2 [I-1604] | < 50 nM
44 | Ac-PL3-Asp-Ile-B5-Asp-3COOHF-Aib-Ala-Phe-Lys*3-PyrS2-Phe-3ClF-GlnR*3-NH2 [I-1598] | < 50 nM

Row | Substance | IC50
45 | Ac-PL3-Asp-Ile-B5-Asp-3COOHF-Aib-Ala-Phe-Lys*3-PyrS2-Phe-3F3MeF-GlnR*3-NH2 [I-1608] | < 50 nM
46 | Ac-PL3-Asp-Ile-B5-Asp-3COOHF-Aib-Ala-Phe-Lys*3-PyrS2-Phe-3MeF-GlnR*3-NH2 [I-1601] | < 50 nM
47 | Ac-PL3-Asp-Ile-B5-Asp-3COOHF-Aib-Ala-Phe-Lys*3-PyrS2-Phe-4BrF-GlnR*3-NH2 [I-1606] | < 50 nM
48 | Ac-PL3-Asp-Ile-B5-Asp-3COOHF-Aib-Ala-Phe-Lys*3-PyrS2-Phe-4ClF-GlnR*3-NH2 [I-1600] | < 50 nM
49 | Ac-PL3-Asp-Ile-B5-Asp-3COOHF-Aib-Ala-Phe-Lys*3-PyrS2-Phe-4F3MeF-GlnR*3-NH2 [I-1610] | < 50 nM
50 | Ac-PL3-Asp-Ile-B5-Asp-3COOHF-Aib-Ala-Phe-Lys*3-PyrS2-Phe-34ClF-GlnR*3-Ala-Ala-Ala-[Ac]Lys-NH2 [I-1395] | < 50 nM
51 | Ac-PL3-Asp-Ile-B5-Asp-3COOHF-Aib-Ala-Phe-Lys*3-PyrS2-Phe-34ClF-GlnR*3-Ala-Ala-Ala-[mPEG4]Lys-NH2 [I-1411] | < 50 nM
52 | Ac-PL3-Asp-Ile-B5-Asp-3COOHF-Aib-Ala-Phe-Lys*3-PyrS2-Phe-34ClF-GlnR*3-Ala-Ala-Ala-[mPEG8]Lys-NH2 [I-1412] | < 50 nM
53 | Ac-PL3-Asp-Ile-B5-Asp-3COOHF-Aib-Ala-Phe-Lys*3-PyrS2-Phe-34ClF-GlnR*3-Ala-Ala-Ala-[mPEG16]Lys-NH2 [I-1413] | < 50 nM
54 | Ac-PL3-Asp-Ile-B5-Asp-3COOHF-Aib-Ala-Phe-Lys*3-PyrS2-Phe-34ClF-GlnR*3-Ala-Ala-[Ac]Lys-NH2 [I-1393] | < 50 nM
55 | Ac-PL3-Asp-Ile-B5-Asp-3COOHF-Aib-Ala-Phe-Lys*3-PyrS2-Phe-34ClF-GlnR*3-Ala-Ala-[mPEG4]Lys-NH2 [I-1405] | 50 to 200 nM
56 | Ac-PL3-Asp-Ile-B5-Asp-3COOHF-Aib-Ala-Phe-Lys*3-PyrS2-Phe-34ClF-GlnR*3-Ala-Ala-[mPEG8]Lys-NH2 [I-1406] | < 50 nM
57 | Ac-PL3-Asp-Ile-B5-Asp-3COOHF-Aib-Ala-Phe-Lys*3-PyrS2-Phe-34ClF-GlnR*3-Ala-Ala-[mPEG16]Lys-NH2 [I-1407] | < 50 nM
58 | Ac-PL3-Asp-Ile-B5-Asp-3COOHF-Aib-Ala-Phe-Lys*3-PyrS2-Phe-34ClF-GlnR*3-Ser-Glu-Ala-NH2 [I-1352] | < 50 nM
59 | Ac-PL3-Asp-Ile-B5-Asp-3COOHF-Aib-Ala-Phe-Lys*3-PyrS2-Phe-34ClF-GlnR*3-Ser-Glu-Leu-NH2 [I-1358] | < 50 nM
60 | Ac-PL3-Asp-Ile-B5-Asp-3COOHF-Aib-Ala-Phe-Lys*3-PyrS2-Phe-34ClF-GlnR*3-Ser-Lys-Ala-NH2 [I-1356] | < 50 nM
61 | Ac-PL3-Asp-Ile-B5-Asp-3COOHF-Aib-Ala-Phe-Lys*3-PyrS2-Phe-34ClF-GlnR*3-Ser-Lys-Leu-NH2 [I-1362] | < 50 nM
62 | Ac-PL3-Asp-Ile-B5-Asp-3COOHF-Aib-Ala-Phe-Lys*3-PyrS2-Phe-34ClF-GlnR*3-Ser-Ser-Ala-NH2 [I-1354] | < 50 nM
63 | Ac-PL3-Asp-Ile-B5-Asp-3COOHF-Aib-Ala-Phe-Lys*3-PyrS2-Phe-34ClF-GlnR*3-Ser-Ser-Leu-NH2 [I-1360] | < 50 nM
64 | Ac-PL3-Asp-Ile-B5-Asp-3COOHF-Aib-Ala-Phe-Lys*3-PyrS2-Phe-34ClF-GlnR*3-Thr-Glu-Ala-NH2 [I-1351] | < 50 nM
